# Biological target: Steroidogenic factor 1 (Homo sapiens, UniProt Q13285)
# Chains of the proteins cited; added tags and fusions are not shown.
# UniProt Q13285, whole entry: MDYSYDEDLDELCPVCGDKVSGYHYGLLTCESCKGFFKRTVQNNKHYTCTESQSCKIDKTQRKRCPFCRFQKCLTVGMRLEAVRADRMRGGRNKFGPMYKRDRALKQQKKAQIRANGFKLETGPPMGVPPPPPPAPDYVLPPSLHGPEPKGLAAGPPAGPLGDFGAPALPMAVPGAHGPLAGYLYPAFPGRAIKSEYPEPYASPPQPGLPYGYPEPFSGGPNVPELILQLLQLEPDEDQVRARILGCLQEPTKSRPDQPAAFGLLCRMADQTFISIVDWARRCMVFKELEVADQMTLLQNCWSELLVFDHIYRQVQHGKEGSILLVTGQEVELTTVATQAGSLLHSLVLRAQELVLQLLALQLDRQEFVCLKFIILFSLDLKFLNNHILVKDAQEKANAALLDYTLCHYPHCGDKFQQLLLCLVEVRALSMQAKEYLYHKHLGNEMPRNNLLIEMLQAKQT
# Assay: Agonist activity at human SF-1 assessed as DAX1 1-23 peptide recruitment by TR-FRET assay relative to control
compound,measurement,value
C=C(c1ccccc1)[C@@]12CC[C@@H](O)[C@@H]1CC(CCCCCC)=C2c1ccccc1 (racemic),EC50,31.6 nM
C=C(c1ccccc1)[C@@]12CC[C@H](O)[C@@H]1CC(CCCCCC)=C2c1ccccc1 (racemic),EC50,63.1 nM
